scFv variants of Ab-14 (light chain) against a SARS-CoV-2 spike peptide

Binding partner: SARS-CoV-2 spike HR2 peptide, sequence PDVDLGDISGINAS.

Ab-14 is the parent antibody, in scFv form: VH, then three GGGGS repeats, then VL. The heavy chain is unchanged in all variants.
VH: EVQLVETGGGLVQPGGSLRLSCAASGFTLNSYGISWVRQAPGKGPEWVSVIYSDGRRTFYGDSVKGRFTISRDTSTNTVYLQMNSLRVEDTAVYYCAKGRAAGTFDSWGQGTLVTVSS
VL: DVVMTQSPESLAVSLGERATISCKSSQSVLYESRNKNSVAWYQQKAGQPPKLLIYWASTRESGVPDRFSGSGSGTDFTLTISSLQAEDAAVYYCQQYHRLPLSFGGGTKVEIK

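The starting antibody came from a phage panning campaign against this peptide. Designed CDR sequences, proposed from the first random library and measured here. Their group label is 14L_Ctrl (Ctrl: baseline library sampled from a position-specific scoring matrix, with some repeated check sequences). Affinity was read by AlphaSeq, a pooled yeast mating assay with surface-displayed partners. Pairs that bind mate more often; barcode pairs of the diploids are counted by sequencing. The ratio of observed to expected reads was calibrated, replicate by replicate, on BCL2-family standards whose Kd was known from biolayer interferometry. There are six technical replicates.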

Positions count from residue 1 of the parent VL; Q27D puts D in place of Q. The read-out is the apparent dissociation constant on a log10 scale (nM): the lower, the stronger. A pair that was not seen in that replicate is written "nd"; this usually means weak binding, but a binder can also be missed. The authors' rule: three or more of the six replicates give a measured affinity, fewer mean a poor binder.

{"changes": "Q27D W56S S62Y Q95D", "log10 Kd (nM) by replicate": "nd nd nd nd nd nd", "signal with controls": "1 of 18 (1.31)"}
{"changes": "W56K E61L", "log10 Kd (nM) by replicate": "1.57 1.94 1.56 1.96 1.45 2.31", "signal with controls": "0 of 18"}
{"changes": "S25E N35R K36L", "log10 Kd (nM) by replicate": "nd nd nd nd nd nd", "signal with controls": "0 of 18"}
{"changes": "S25L S26P L30D N35Y W56E", "log10 Kd (nM) by replicate": "0.42 0.29 0.46 0.36 0.34 0.58", "signal with controls": "4 of 18 (2.69)"}
{"changes": "S28E R34A T59R", "log10 Kd (nM) by replicate": "1.97 2.15 1.40 1.25 1.36 1.53", "signal with controls": "2 of 18 (2.66)"}
{"changes": "A57K S103Q", "log10 Kd (nM) by replicate": "nd nd nd nd nd 2.16", "signal with controls": "0 of 18"}
{"changes": "R34M E61N H98A", "log10 Kd (nM) by replicate": "1.39 2.15 1.50 0.67 1.03 0.84", "signal with controls": "0 of 18"}
{"changes": "S33R R34V A57Y E61V", "log10 Kd (nM) by replicate": "nd nd nd nd nd nd", "signal with controls": "0 of 18"}
{"changes": "S25Q N35P E61G L100D", "log10 Kd (nM) by replicate": "nd nd nd nd nd nd", "signal with controls": "0 of 18"}
{"changes": "L30S W56K A57D", "log10 Kd (nM) by replicate": "2.27 2.94 nd nd 2.83 3.43", "signal with controls": "1 of 18 (2.57)"}
{"changes": "Q27H R34Y Q95E", "log10 Kd (nM) by replicate": "nd nd nd nd nd nd", "signal with controls": "0 of 18"}
{"changes": "S33A S62A", "log10 Kd (nM) by replicate": "2.03 1.40 0.86 0.98 1.42 2.12", "signal with controls": "1 of 18 (1.87)"}
{"changes": "R34L N35L K36F", "log10 Kd (nM) by replicate": "nd nd nd nd nd 2.51", "signal with controls": "0 of 18"}
{"changes": "E32M R34S K36F W56D T59W", "log10 Kd (nM) by replicate": "nd 4.24 2.34 nd nd nd", "signal with controls": "0 of 18"}
{"changes": "L30Y W56H S62Q", "log10 Kd (nM) by replicate": "1.78 2.18 1.34 2.23 2.68 1.39", "signal with controls": "1 of 18 (2.80)"}
{"changes": "S25T S28G K36A", "log10 Kd (nM) by replicate": "nd 2.23 2.10 1.49 2.61 1.88", "signal with controls": "1 of 18 (2.62)"}
{"changes": "W56H H98S", "log10 Kd (nM) by replicate": "1.45 1.22 0.64 0.78 1.02 0.94", "signal with controls": "1 of 18 (1.67)"}
{"changes": "L30G Y31A N35T H98N", "log10 Kd (nM) by replicate": "nd nd nd nd nd 1.32", "signal with controls": "0 of 18"}
{"changes": "V29A H98E", "log10 Kd (nM) by replicate": "2.01 nd 1.52 1.59 1.19 1.23", "signal with controls": "0 of 18"}
{"changes": "S33E K36E N37E W56H S62L H98S", "log10 Kd (nM) by replicate": "1.15 1.56 0.87 0.80 1.30 1.16", "signal with controls": "1 of 18 (2.89)"}
{"changes": "S26D Y31Q W56N Q96T", "log10 Kd (nM) by replicate": "0.42 0.69 0.13 0.22 0.28 0.37", "signal with controls": "0 of 18"}
{"changes": "K24A R99H", "log10 Kd (nM) by replicate": "2.07 2.66 nd nd 2.57 2.75", "signal with controls": "1 of 18 (2.55)"}
{"changes": "V29I S33G W56F", "log10 Kd (nM) by replicate": "1.45 1.37 1.38 1.74 1.79 2.00", "signal with controls": "0 of 18"}
{"changes": "L30W W56A P101N", "log10 Kd (nM) by replicate": "1.67 3.39 nd 0.79 2.19 1.91", "signal with controls": "0 of 18"}
{"changes": "S33P K36R A57G", "log10 Kd (nM) by replicate": "0.39 0.53 0.07 0.41 0.01 0.46", "signal with controls": "2 of 18 (1.93)"}
{"changes": "S62P", "log10 Kd (nM) by replicate": "2.02 1.50 1.73 2.09 1.81 2.03", "signal with controls": "1 of 18 (1.78)"}
{"changes": "L102I S103R", "log10 Kd (nM) by replicate": "1.18 1.15 0.28 0.55 1.08 1.06", "signal with controls": "0 of 18"}
{"changes": "R34Q K36Y", "log10 Kd (nM) by replicate": "nd 3.13 2.23 nd 3.31 2.71", "signal with controls": "0 of 18"}

A selection of 2 entries from above:

{"changes": "L30S W56K A57D", "log10 Kd (nM) by replicate": "2.27 2.94 nd nd 2.83 3.43", "signal with controls": "1 of 18 (2.57)"}
{"changes": "S33E K36E N37E W56H S62L H98S", "log10 Kd (nM) by replicate": "1.15 1.56 0.87 0.80 1.30 1.16", "signal with controls": "1 of 18 (2.89)"}

Background: pairings of all light chain designs with three empty control strains gave a value in 4% of cases (median 2.64, 5th percentile 1.59). Values in that range, when seen in few replicates, are hard to tell from nonspecific mating. For each scFv, signals with the empty controls are counted beside the result, with their mean in brackets. A sequence measured in both rounds can read differently, since the two assays cover different ranges.

From the AlphaSeq antibody data of Li et al. 2023 (doi:10.1038/s41467-023-39022-2), copy in the FLAb collection.